For this assay, the system named is strains from the 142 strain group and the 180 strain group. Kind of assay: Efficiency of mutagenesis (mutation factor, 5-FOA resistance). Conditions: most effective treatments; frequency of 5-FOA resistant mutants.

In the case of `CN(N=O)C(=N)N[N+](=O)[O-]`, the mutation factor is on record as 100.
